{"sequences": {"note": "Chains of the proteins cited; added tags and fusions are not shown.", "UniProt P33535, whole entry": "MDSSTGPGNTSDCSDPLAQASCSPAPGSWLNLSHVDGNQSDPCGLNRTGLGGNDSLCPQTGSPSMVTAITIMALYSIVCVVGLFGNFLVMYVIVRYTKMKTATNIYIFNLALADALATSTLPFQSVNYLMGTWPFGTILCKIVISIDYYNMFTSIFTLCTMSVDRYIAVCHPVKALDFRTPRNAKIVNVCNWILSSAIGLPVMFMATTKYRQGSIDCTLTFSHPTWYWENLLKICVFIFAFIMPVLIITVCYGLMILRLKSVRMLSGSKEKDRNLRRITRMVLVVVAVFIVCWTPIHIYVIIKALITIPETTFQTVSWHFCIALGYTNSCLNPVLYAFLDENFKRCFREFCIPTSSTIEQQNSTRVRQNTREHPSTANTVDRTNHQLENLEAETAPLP"}, "source": "ChEMBL document CHEMBL1130417", "about": "(J Med Chem, 1997)", "target": "Mu-type opioid receptor (Rattus norvegicus, UniProt P33535)", "assay": "Inhibition of radioligand [3H]DAMGO binding to rat brain Opioid receptor mu 1 […]", "in_short": "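Rat brain membranes were labelled with [3H]DAMGO (1–3 nM) for 4 h at 25 °C in 50 mM Tris-HCl pH 7.4 with protease inhibitor cocktail. Nonspecific binding was set with 20 μM levallorphan. Displacement used 8–10 drug concentrations, run twice, with drug diluted in Tris pH 7.4 containing 1 mg/mL BSA. IC50 and slope factor came from curve fitting.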"}
{"smiles": "C=CCN1C[C@@H](C)N([C@H](c2ccc(C(=O)N(CC)CC)cc2)c2cccc(O)c2)C[C@@H]1C", "note": "(single isomer, unassigned)", "values": [{"measurement": "IC50", "value": 167, "unit": "nM"}]}
{"smiles": "C=CCN1C[C@H](C)N([C@H](c2ccc(C(=O)N(CC)CC)cc2)c2cccc(O)c2)C[C@H]1C", "note": "(stereo in doubt; (-)-1)", "values": [{"measurement": "IC50", "value": 2320, "unit": "nM"}]}
